Data from PMC9295256 (Journal of medicinal chemistry, 2021).

Sequences of proteins named here, by UniProt entry; tags and fusion partners are left off. Residues count along the entry.
UniProt P42676, 38-704: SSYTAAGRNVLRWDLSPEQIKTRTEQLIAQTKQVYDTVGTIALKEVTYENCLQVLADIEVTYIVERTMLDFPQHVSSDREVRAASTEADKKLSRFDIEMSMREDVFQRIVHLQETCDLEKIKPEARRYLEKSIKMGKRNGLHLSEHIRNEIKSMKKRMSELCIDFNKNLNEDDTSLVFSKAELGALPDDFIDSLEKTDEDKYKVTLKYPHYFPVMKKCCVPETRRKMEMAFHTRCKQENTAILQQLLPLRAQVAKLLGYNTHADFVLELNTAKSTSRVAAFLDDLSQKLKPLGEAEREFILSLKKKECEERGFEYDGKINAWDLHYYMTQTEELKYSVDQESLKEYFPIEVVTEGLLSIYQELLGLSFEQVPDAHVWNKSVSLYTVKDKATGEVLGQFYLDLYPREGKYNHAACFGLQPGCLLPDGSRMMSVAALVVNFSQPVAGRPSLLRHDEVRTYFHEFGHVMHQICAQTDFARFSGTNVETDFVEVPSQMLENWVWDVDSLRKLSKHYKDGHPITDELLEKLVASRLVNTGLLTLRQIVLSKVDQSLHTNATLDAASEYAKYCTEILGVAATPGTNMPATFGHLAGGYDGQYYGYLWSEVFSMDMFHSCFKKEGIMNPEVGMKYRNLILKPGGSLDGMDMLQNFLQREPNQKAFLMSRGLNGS

Target: recombinant rat Nln (Rattus norvegicus, UniProt P42676)
Test: Nln activation, continuous quenched fluorescence substrate
Assay type: biochemical

In the case of `COc1cccc(CCNC(=O)[C@@H](N)Cc2c[nH]cn2)c1` [Compound 4i, (S)-2-Amino-3-(1H-imidazol-4-yl)-N-(3-methoxyphenethyl)-propanamide], the EC50 is reported as 30 µM.
